{"source": "patent US20090163436A1", "about": "“METHODS FOR DELIVERY OF NUCLEIC ACIDS” (Nucleonics, Inc., priority 2002, published 2009)", "test": "Example 3: blood clearance of 14C-labeled plasmid DNA after IV administration"}
{"substance": "N^4-(5-(trilactosyllysyllysyl) amidopentyl spermine triacetate [trilactosyl spermine]", "values": [{"measurement": "uptake time, extrapolation of the clearance curve", "setting": "DNA monocomplex", "value": "a couple of minutes"}, {"measurement": "blood clearance of DNA", "setting": "DNA monocomplex with the named spermine, charge ratio 0.8", "value": "fastest clearance"}]}
